Laboratory results published in patent US12448382B2, “Heterocyclic compounds for mediating tyrosine kinase 2 activity” (GUANGZHOU INNOCARE PHARMA TECH CO., LTD., priority 2019, dated 2025).

Chains of the proteins cited; added tags and fusions are not shown. Residues count along the entry.
UniProt O60674, 826-1132 limits assumed: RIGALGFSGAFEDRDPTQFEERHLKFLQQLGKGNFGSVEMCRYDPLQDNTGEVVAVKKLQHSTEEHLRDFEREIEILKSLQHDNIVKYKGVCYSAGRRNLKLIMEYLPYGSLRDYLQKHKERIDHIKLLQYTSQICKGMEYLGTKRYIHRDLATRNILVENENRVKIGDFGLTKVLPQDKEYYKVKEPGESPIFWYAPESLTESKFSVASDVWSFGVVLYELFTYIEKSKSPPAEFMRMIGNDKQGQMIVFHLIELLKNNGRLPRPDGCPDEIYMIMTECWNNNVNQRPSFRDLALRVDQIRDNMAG
UniProt P29597, 871-1187 limits assumed: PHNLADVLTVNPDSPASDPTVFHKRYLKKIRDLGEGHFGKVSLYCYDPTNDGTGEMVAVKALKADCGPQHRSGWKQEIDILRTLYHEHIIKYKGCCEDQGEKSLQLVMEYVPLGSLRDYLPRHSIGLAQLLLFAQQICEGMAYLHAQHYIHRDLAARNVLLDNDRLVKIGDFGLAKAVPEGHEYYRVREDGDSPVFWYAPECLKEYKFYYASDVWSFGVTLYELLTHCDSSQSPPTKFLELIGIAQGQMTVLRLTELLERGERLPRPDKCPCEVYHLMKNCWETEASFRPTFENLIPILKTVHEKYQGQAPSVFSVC

Legend:
[1] = target: human recombinant JAK2 protein (Homo sapiens, UniProt O60674); assay: JAK2 Inhibition Assay (HTRF kinase assay); conditions: read-out: IC50 (nM) JAK2, human recombinant JAK2, 2.5 μM ATP substrate solution
Procedure: The effect of the compounds of the present invention on the enzymatic activity of JAK2 was assessed by detecting the substrate phosphorylation level in a kinase reaction using the HTRF kinase assay detection kit (Cisbio, Cat. No. 62TK0PEC).
(§1) The experimental method is generally described below:
A reaction buffer contained the following components: an enzyme reaction buffer (1×), 5 mM MgCl2, 1 mM DTT and 0.01% Brij35 from the kit. A JAK2 kinase solution contained a human recombinant JAK2 protein (Carna Biosciences, 08-045) diluted in the reaction buffer to 0.15 ng/μL. A substrate reaction solution contained 2.5 μM ATP and 0.25 μM of a biotinylated tyrosine kinase substrate from the kit in the reaction buffer. A detection solution contained 0.1 ng/μL Eu^3+-labeled cage antibody (Cisbio, 61T66KLB) and 12.5 nM streptavidin-labeled XL665 (Cisbio, 610SAXLB) in the reaction buffer.
(§2) The test compound was dissolved in DMSO to 10 μM, followed by a serial 4-fold dilution with DMSO to a minimum concentration of 0.061 nM. Each concentration was further diluted 40-fold with the reaction buffer.
(§3) To a 384-well assay plate (Corning, 3674) were added 4 μL of compound solution and 2 μL of JAK2 kinase solution. The mixture was mixed and incubated at room temperature for 15 minutes, and then added with 4 μL of the substrate reaction solution. […] An Envision plate reader (Perkin Elmer) was then used to measure the progress of the reaction at 620 nm and 665 nm. The ratio of absorbances at 665 nm and 620 nm was positively correlated with the degree of substrate phosphorylation, therefore the activity of JAK2 kinase was detected. […] The percentage of inhibition on JAK2 kinase activity by the test compound was calculated using the following formula: Percentage of inhibition=100−100*(ratiocompound−ratio100% inhibition)/(ratio0% inhibition−ratio100% inhibition)
The IC50 value of the test compound was calculated from 8 concentration points using the XLfit softwere (ID Business Solutions Ltd., UK) by the following formula: Y=Bottom+(Top−Bottom)/(1+10^((log IC50−X)×slope factor)) […]

[2] = target: human recombinant TYK2 protein (Homo sapiens, UniProt P29597); assay: TYK2 Inhibition Assay (HTRF kinase assay); conditions: read-out: IC50 (nM) TYK2, human recombinant TYK2, 11.25 μM ATP substrate solution
Procedure: The effect of the compounds of the present invention on the enzymatic activity of TYK2 was assessed by detecting the substrate phosphorylation level in a kinase reaction using the HTRF kinase assay detection kit (Cisbio, Cat. No. 62TK0PEC).
as §1
A reaction buffer contained the following components: an enzyme reaction buffer (1×), 5 mM MgCl2 mM DTT and 0.01% Brij35 from the kit. A TYK2 kinase solution contained human recombinant TYK2 protein (Carna Biosciences, 08-147) diluted in the reaction buffer to 0.25 ng/μL. A substrate reaction solution contained 11.25 μM ATP and 0.5 μM of a biotinylated tyrosine kinase substrate from the kit in the reaction buffer. A detection solution contained 0.1 ng/μL Eu^3+-labeled cage antibody (Cisbio, 61T66KLB) and 25 nM streptavidin-1 added XL665 (Cisbio, 610SAXLB) in the reaction buffer.
as §2
as §3, with “TYK2” for “JAK2”, “test,” for “test”
The IC50 value of the test compound was calculated from 8 concentration points using the XLfit software (ID Business Solutions Ltd., UK) by the following formula: Y=Bottom+(Top−Bottom)/(1+10^((log IC50−X)slope factor)) […]

[3] = test system: IL-12-induced IFN-γ secretion in NK92 cells; assay: Inhibition of IL-12-induced IFN-γ Secretion in NK92 Cells (ELISA); conditions: read-out: IC50 (NK92_IL12/IFNγ), 24 hours incubation, 8 concentration points
Procedure: Inhibition of IL-12-induced IFN-γ Secretion in NK92 Cells
The effect of the compounds of the present invention on IFN-γ secretion induced by IL-12 in NK92 cells was evaluated by an enzyme-linked immunosorbent assay (ELISA).
IL-12 receptor is mainly expressed in activated T-cells, NK cells (NK92 is a NK cell line), DC cells, and B-cells. When binding to IL-12, it activates JAK2/TYK2 signal transduction pathway within NK cells and T lymphocytes, thereby inducing secretion of IFN-γ.
as §1
The test compound was dissolved in DMSO to 2.5 mM, followed by a serial 4-fold dilution with DMSO to a minimum concentration of […]. Each concentration was further diluted 50-fold with an FBS-free MEMα medium (Gibco, 12561-056).
NK92 cells (Nanjing Cobioer, CBP60980) were cultured in a complete MEMα medium containing 12.5% FBS (Ausbian, VS500T), 12.5% horse serum (Gibco, 16050-122), 0.02 mM folic acid (Sigma, F8758), 0.2 mM inositol (Sigma, 17850), 0.55 mM β-mercaptoethanol (Gibco, 21985-023), 200 U/mL IL-2 (R&D Systems, 202-1L), and 100 U/mL penicillin (Thermofisher, 15140122). […]
After overnight incubation, 10 μL of the test compound and 10 μL of 50 ng/mL IL-12 (R & D Systems, 219-1L) were added to each well and mix gently, and the 96-well plate was incubated in the 37° C./5% CO2 incubator for additional 24 hours. […] The amount of IFN-γ secretion was detected following the instruction from the Human IFN-γ DuoSet ELISA kit (R & D Systems, DY285B). […] The percentage of inhibition on IL-12 induced IFN-γ secretion in NK-92 cells by the test compound was calculated using the following formula: Percentage of inhibition=100−100*(signalcompound−signalnon-stimulated control)/(signalstimulated control−signalnon-stimulated control)
The IC50 value of the test compound was calculated front 8 concentration points using the XLfit software (ID Business Solutions Ltd., UK) by the following formula: Y=Bottom+(Top−Bottom)/(1+10^((log IC50−X)×slope factor)) […]

`Cn1cc(Nc2ncc(Cl)c(N3C[C@]4(C)CN(C(=O)c5ccno5)C[C@]4(C)C3)n2)cn1` was tested, and the IC50 [1] was 3.9 nM, the IC50 [2] was 0.9 nM and the IC50 [3] was 591 nM.
`Cc1cnc(Nc2cnn(C)c2)nc1N1C[C@]2(C)CN(C(=O)c3ccno3)C[C@]2(C)C1` showed an IC50 [1] of 6.5 nM, an IC50 [2] of 5.6 nM and an IC50 [3] of 564 nM.
`Cn1cc(Nc2ncc(Cl)c(N3C[C@@]4(C)CN(S(=O)(=O)C5CC5)C[C@@]4(C)C3)n2)cn1` showed an IC50 [1] of 3 nM, an IC50 [2] of 3.4 nM and an IC50 [3] of 646 nM.
